Test results reported in patent US20240360179A1, “STAPLED PEPTIDES AND METHODS THEREOF” (FOG PHARMACEUTICALS, INC., priority 2021, published 2024).

Amino acid sequences for entries named in this document (tags omitted).
UniProt P35222, whole entry: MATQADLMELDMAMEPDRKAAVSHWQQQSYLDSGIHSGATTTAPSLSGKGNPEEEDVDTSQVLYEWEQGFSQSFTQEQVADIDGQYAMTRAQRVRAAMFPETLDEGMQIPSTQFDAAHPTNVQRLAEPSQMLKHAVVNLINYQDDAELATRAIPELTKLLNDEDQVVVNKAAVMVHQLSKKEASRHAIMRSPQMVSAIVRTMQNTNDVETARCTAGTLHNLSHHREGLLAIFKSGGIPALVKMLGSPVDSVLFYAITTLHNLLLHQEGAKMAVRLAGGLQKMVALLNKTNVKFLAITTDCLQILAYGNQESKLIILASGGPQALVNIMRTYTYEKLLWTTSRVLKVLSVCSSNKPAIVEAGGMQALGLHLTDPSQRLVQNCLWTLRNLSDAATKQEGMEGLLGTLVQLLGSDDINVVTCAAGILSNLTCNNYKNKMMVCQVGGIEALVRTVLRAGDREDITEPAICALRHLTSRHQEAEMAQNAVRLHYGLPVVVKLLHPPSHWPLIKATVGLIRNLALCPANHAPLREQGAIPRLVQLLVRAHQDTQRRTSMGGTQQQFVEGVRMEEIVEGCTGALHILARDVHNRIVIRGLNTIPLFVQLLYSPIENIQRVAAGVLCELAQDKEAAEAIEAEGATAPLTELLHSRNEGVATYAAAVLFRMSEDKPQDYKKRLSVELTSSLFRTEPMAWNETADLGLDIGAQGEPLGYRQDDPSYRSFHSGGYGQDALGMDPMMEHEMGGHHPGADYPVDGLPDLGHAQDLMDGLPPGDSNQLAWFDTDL

Key:
[1] = molecular target: T1, full-length B-Catenin (Uniprot ID P35222) (Homo sapiens, UniProt P35222); test: biochemical; format: binding; details: beta-Catenin FP IC50 (nM), competition fluorescence polarization
T1 construct: 10 nM full-length B-Catenin (Uniprot ID P35222)

[2] = molecular target: beta-catenin/TCF4 interaction (Homo sapiens, UniProt P35222); test: cell-based; design: host or cells: HEK293; details: NanoBRET Abs IC50 (uM)

| IC50 [1] [nM] | IC50 ([2]; absolute IC50) [µM] | IC50 [2] [µM] | SMILES |
| --- | --- | --- | --- |
| > 1000 | > 10 | – | CC(=O)N1CCC[C@]12CC=CCCCC1(CCCC=CCCCOC(=O)N3CC[C@@]4(C3)NC(=O)[C@H](CCCCNC(=O)CC[C@@H](C(=O)N[C@@H](C)C(N)=O)NC(=O)[C@H](Cc3csc5ccccc35)NC(=O)[C@H](Cc3ccsc3)NC4=O)NC(=O)[C@H](Cc3ccccc3)NC(=O)[C@H](C)NC(=O)C(C)(C)NC(=O)[C@H](Cc3cccc(C(=O)O)c3)NC(=O)[C@H](CCCC(=O)O)NC1=O)NC(=O)[C@H](CC(C)(C)C)NC(=O)[C@H](CCC(=O)O)NC2=O (relative stereo) [I-550, Ac-PL3-Glu-Npg-B5-Aad-3COOHF-Aib-Ala-Phe-Lys*3-PyrS2-3Thi-BztA-GlnR*3-Ala-NH2] |
| 50 to 200 | > 10 | – | CC(=O)N1CCC[C@]12CC=CCCCC1(CCCC=CCCCOC(=O)N3CC[C@@]4(C3)NC(=O)[C@H](CCCCNC(=O)CC[C@@H](C(=O)N[C@@H](C)C(N)=O)NC(=O)[C@H](Cc3csc5ccccc35)NC(=O)[C@H](Cc3ccccc3C(F)(F)F)NC4=O)NC(=O)[C@H](Cc3ccccc3)NC(=O)[C@H](C)NC(=O)C(C)(C)NC(=O)[C@H](Cc3cccc(C(=O)O)c3)NC(=O)[C@H](CC(=O)O)NC1=O)NC(=O)[C@H](CC(C)(C)C)NC(=O)[C@H](CC(=O)O)OC2=O (relative stereo) [I-469, Ac-PL3-OAsp-Npg-B5-Asp-3COOHF-Aib-Ala-Phe-Lys*3-PyrS2-2F3MeF-BztA-GlnR*3-Ala-NH2] |
| < 50 | 3 to 10 | – | CC(=O)N1CCC[C@]12CC=CCCCC1(CCCC=CCCCOC(=O)N3CC[C@@]4(C3)NC(=O)[C@H](CCCCNC(=O)CC[C@@H](C(=O)N[C@@H](CC(C)C)C(=O)N[C@@H](CO)C(=O)N[C@@H](C)C(N)=O)NC(=O)[C@H](Cc3csc5ccccc35)NC(=O)[C@H](Cc3ccsc3)NC4=O)NC(=O)[C@H](Cc3ccccc3)NC(=O)[C@H](C)NC(=O)C(C)(C)NC(=O)[C@H](Cc3cccc(C(=O)O)c3)NC(=O)[C@H](CC(=O)O)NC1=O)NC(=O)[C@H](CC(C)(C)C)NC(=O)[C@H](CC(=O)O)NC2=O (single isomer, unassigned) [I-496, Ac-PL3-Asp-Npg-B5-Asp-3COOHF-Aib-Ala-Phe-Lys*3-PyrS2-3Thi-BztA-GlnR*3-Leu-Ser-Ala-NH2] |
| < 50 | 3 to 10 | – | CCCC[C@@H]1NC(=O)[C@]23CCN(C2)C(=O)OCCCC=CCCCC2(CCCC=CC[C@]4(CCCN4C(C)=O)C(=O)N[C@@H](CC(=O)O)C(=O)N[C@@H](CC(C)(C)C)C(=O)N2)C(=O)N[C@@H](CC(=O)O)C(=O)N[C@@H](Cc2cccc(C(=O)O)c2)C(=O)NC(C)(C)C(=O)N[C@@H](C)C(=O)N[C@@H](Cc2ccccc2)C(=O)N[C@@H](CCCCNC(=O)CC[C@@H](C(=O)N[C@@H](C)C(N)=O)NC(=O)[C@H](Cc2ccc(Cl)c(Cl)c2)NC1=O)C(=O)N3 (single isomer, unassigned) [I-473, Ac-PL3-Asp-Npg-B5-Asp-3COOHF-Aib-Ala-Phe-Lys*3-PyrS2-nLeu-34ClF-GlnR*3-Ala-NH2] |

Continued, compound first:

| SMILES | IC50 [1] [nM] | IC50 ([2]; absolute IC50) [µM] | IC50 [2] [µM] |
| --- | --- | --- | --- |
| C[C@H](NC(=O)[C@@H]1CCC(=O)NCCCC[C@@H]2NC(=O)[C@H](Cc3ccccc3)NC(=O)[C@H](C)NC(=O)C(C)(C)NC(=O)[C@H](Cc3cccc(C(=O)O)c3)NC(=O)[C@H](CC(=O)O)NC(=O)[C@](C)(NC(=O)[C@@H]3CC=CCCCC(=O)N4CCC[C@@]4(C)C(=O)N[C@@H](CC(=O)O)C(=O)N3)CCCCCCCCOC(=O)N3CC[C@@](C3)(NC2=O)C(=O)N[C@@H](Cc2ccsc2)C(=O)N[C@@H](Cc2csc3ccccc23)C(=O)N1)C(N)=O (single isomer, unassigned) [I-431, 5hexenyl-MePro-Asp-AllylGly-R5-Asp-3COOHF-Aib-Ala-Phe-Lys*3-PyrS2-3Thi-BztA-GlnR*3-Ala-NH2] | < 50 | > 10 | – |
| CC(=O)N1CCC[C@]12CC=CCCCC1(CCCC=CCCCOC(=O)N3CC[C@@]4(C3)NC(=O)[C@H](CCCCNC(=O)CC[C@@H](C(=O)N[C@H](C(N)=O)C(C)C)NC(=O)[C@H](Cc3csc5ccccc35)NC(=O)[C@H](Cc3ccsc3)NC4=O)NC(=O)[C@H](Cc3ccccc3)NC(=O)[C@H](C)NC(=O)C(C)(C)NC(=O)[C@H](Cc3cccc(C(=O)O)c3)NC(=O)[C@H](CC(=O)O)NC1=O)NC(=O)[C@H](CC(C)(C)C)NC(=O)[C@H](CC(=O)O)NC2=O (relative stereo) [I-396, Ac-PL3-Asp-Npg-B5-Asp-3COOHF-Aib-Ala-Phe-Lys*3-PyrS2-3Thi-BztA-GlnR*3-Val-NH2] | < 50 | 1.5 to 3 | – |
| CC(=O)N1CCC[C@]12CC=CCCCC1(CCCC=CCCCOC(=O)N3CC[C@@]4(C3)NC(=O)[C@H](CCCCNC(=O)CC[C@@H](C(=O)N[C@@H](C)C(N)=O)NC(=O)[C@H](Cc3csc5ccccc35)NC(=O)[C@H](Cc3ccsc3)NC4=O)NC(=O)[C@H](Cc3ccccc3)NC(=O)[C@H](C)NC(=O)C(C)(C)NC(=O)[C@H](Cc3cccc(C(=O)O)c3)NC(=O)[C@H](CC(=O)O)NC1=O)NC(=O)[C@H](CC(C)(C)C)NC(=O)[C@H](CO)NC2=O (relative stereo) [I-160, Ac-PL3-Ser-Npg-B5-Asp-3COOHF-Aib-Ala-Phe-Lys*3-PyrS2-3Thi-BztA-GlnR*3-Ala-NH2] | < 50 | – | 3 to 10 |
| CC(=O)N1CCC[C@]12CC=CCCCC1(CCCC=CCCCOC(=O)N3CC[C@@]4(C3)NC(=O)[C@H](CCCCNC(=O)CC[C@@H](C(=O)N[C@@H](C)C(N)=O)NC(=O)[C@H](Cc3csc5ccccc35)NC(=O)[C@H](Cc3ccsc3)NC4=O)NC(=O)[C@H](Cc3ccccc3)NC(=O)[C@H](CCC(N)=O)NC(=O)C(C)(C)NC(=O)[C@H](Cc3cccc(C(=O)O)c3)NC(=O)[C@H](CC(=O)O)NC1=O)NC(=O)[C@H](CC(C)(C)C)NC(=O)[C@H](CC(=O)O)NC2=O (single isomer, unassigned) [I-451, Ac-PL3-Asp-Npg-B5-Asp-3COOHF-Aib-Gln-Phe-Lys*3-PyrS2-3Thi-BztA-GlnR*3-Ala-NH2] | < 50 | > 10 | – |
| CC(=O)N1CCC[C@]12CC=CCCCC1(CCCC=CCCCOC(=O)N3CC[C@@]4(C3)NC(=O)[C@H](CCCCNC(=O)CC[C@@H](C(=O)N[C@@H](C)C(N)=O)NC(=O)[C@H](Cc3csc5ccccc35)NC(=O)[C@H](Cc3ccsc3)NC4=O)NC(=O)[C@H](Cc3ccccc3)NC(=O)[C@H](CO)NC(=O)C(C)(C)NC(=O)[C@H](Cc3cccc(C(=O)O)c3)NC(=O)[C@H](CC(=O)O)NC1=O)NC(=O)[C@H](CC(C)(C)C)NC(=O)[C@H](CC(=O)O)NC2=O (relative stereo) [I-444, Ac-PL3-Asp-Npg-B5-Asp-3COOHF-Aib-Ser-Phe-Lys*3-PyrS2-3Thi-BztA-GlnR*3-Ala-NH2] | < 50 | 3 to 10 | – |
| CC(=O)N1CCC[C@]12CC=CCCCC1(CCCC=CCCCOC(=O)N3CC[C@@]4(C3)NC(=O)[C@H](CCCCNC(=O)CC[C@@H](C(=O)N[C@@H](C)C(N)=O)NC(=O)[C@H](Cc3csc5ccccc35)NC(=O)[C@H](Cc3ccsc3)NC4=O)NC(=O)[C@H](Cc3ccccc3)NC(=O)C3(CC3)NC(=O)[C@H](C)NC(=O)[C@H](Cc3cccc(C(=O)O)c3)NC(=O)[C@H](CC(=O)O)NC1=O)NC(=O)[C@H](CC(C)(C)C)NC(=O)[C@H](CC(=O)O)NC2=O (relative stereo) [I-443, Ac-PL3-Asp-Npg-B5-Asp-3COOHF-Ala-Cpg-Phe-Lys*3-PyrS2-3Thi-BztA-GlnR*3-Ala-NH2] | < 50 | > 10 | – |
